Laboratory results published in ChEMBL document CHEMBL3526056, “Characterization of in vitro glucuronidation clearance of a range of drugs in human kidney microsomes: comparison with liver and intestinal glucuronidation and impact of albumin” (Drug Metab Dispos, 2012).

What was measured:
[1] = biological target: T1, UDP-glucuronosyltransferase 2B7 (Homo sapiens, UniProt P16662); assay: Ratio of UGT2B7-mediated unbound intrinsic glucuronidation clearance in human kidney microsomes to UGT2B7-mediated unbound intrinsic glucuronidation clearance in human intestinal microsomes at 1 uM; type: ADME
T1 sequence (P16662 whole entry): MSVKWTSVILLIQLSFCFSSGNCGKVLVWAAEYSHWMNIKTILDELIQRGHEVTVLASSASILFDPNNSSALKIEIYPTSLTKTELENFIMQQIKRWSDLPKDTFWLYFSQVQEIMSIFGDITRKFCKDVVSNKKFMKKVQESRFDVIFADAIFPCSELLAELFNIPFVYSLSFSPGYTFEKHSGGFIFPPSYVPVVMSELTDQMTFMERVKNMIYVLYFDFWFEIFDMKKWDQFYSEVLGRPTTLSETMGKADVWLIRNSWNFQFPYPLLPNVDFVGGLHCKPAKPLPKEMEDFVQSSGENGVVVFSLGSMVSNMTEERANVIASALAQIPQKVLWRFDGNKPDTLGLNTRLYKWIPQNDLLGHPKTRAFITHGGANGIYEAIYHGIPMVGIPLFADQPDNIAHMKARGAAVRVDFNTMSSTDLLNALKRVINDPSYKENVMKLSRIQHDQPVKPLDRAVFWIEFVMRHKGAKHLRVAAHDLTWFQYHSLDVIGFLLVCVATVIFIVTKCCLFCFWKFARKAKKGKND

[2] = biological target: T1, UDP-glucuronosyltransferase 2B7; assay: Ratio of UGT2B7-mediated unbound intrinsic glucuronidation clearance in human kidney microsomes to UGT2B7-mediated unbound intrinsic glucuronidation clearance in human liver microsomes at 1 uM in presence of 1% bovine serum albumin; type: ADME; details: recombinant enzyme
[3] = biological target: T1, UDP-glucuronosyltransferase 2B7; assay: Ratio of UGT2B7-mediated unbound intrinsic glucuronidation clearance in human kidney microsomes to UGT2B7-mediated unbound intrinsic glucuronidation clearance in human intestinal microsomes at 1 uM in presence of 1% bovine serum albumin; type: ADME
[4] = biological target: T1, UDP-glucuronosyltransferase 2B7; assay: Ratio of UGT2B7-mediated unbound intrinsic glucuronidation clearance in human kidney microsomes to UGT2B7-mediated unbound intrinsic glucuronidation clearance in human liver microsomes at 1 uM; type: ADME; details: recombinant enzyme
[5] = Ratio of unbound intrinsic glucuronidation clearance in human kidney microsomes in presence of 1% bovine serum albumin to unbound intrinsic glucuronidation clearance in human kidney microsomes in absence of bovine serum albumin; type: ADME, microsome
Method in brief: (§1)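 Unbound intrinsic glucuronidation clearance measured by parent-drug depletion in intestinal or kidney microsomes, once with 1% BSA and once without, under otherwise matched conditions (1 μM drug, pH 7.1 phosphate, 5 mM cofactor, 37°C). Each value was corrected for fu,inc. The ratio is the mean clearance with BSA over the mean without.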

[6] = biological target: UDP-glucuronosyltransferase 2B7 (Homo sapiens) (UniProt P16662); assay: Drug metabolism in human intestinal microsomes assessed as UGT2B7-mediated unbound intrinsic glucuronidation clearance at 1 uM after 30 to 60 mins by LC-MS/MS analysis in presence of 1% bovine serum albumin
[7] = biological target: T1, UDP-glucuronosyltransferase 2B7; assay: Ratio of UGT2B7-mediated unbound intrinsic glucuronidation clearance in human intestinal microsomes to UGT2B7-mediated unbound intrinsic glucuronidation clearance in human liver microsomes at 1 uM; type: ADME; details: recombinant enzyme
[8] = biological target: T1, UDP-glucuronosyltransferase 2B7; assay: Ratio of UGT2B7-mediated unbound intrinsic glucuronidation clearance in human intestinal microsomes to UGT2B7-mediated unbound intrinsic glucuronidation clearance in human liver microsomes at 1 uM in presence of 1% bovine serum albumin; type: ADME; details: recombinant enzyme
[9] = Ratio of unbound intrinsic glucuronidation clearance in human intestinal microsomes in presence of 1% bovine serum albumin to unbound intrinsic glucuronidation clearance in human intestinal microsomes in absence of bovine serum albumin; type: ADME, Intestine, Microsome; method in brief: as §1
Liver microsome = assay: Ratio of unbound intrinsic glucuronidation clearance in human liver microsomes in presence of 1% bovine serum albumin to unbound intrinsic glucuronidation clearance in human liver microsomes in absence of bovine serum albumin; type: ADME
Method in brief: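 Ratio of mean unbound CLint,UGT in pooled human liver microsomes with 1% BSA to that without BSA. Both come from 1 μM depletion assays at 37°C in pH 7.1 phosphate buffer, with parent drug measured by LC-MS/MS. BSA runs were quenched in double-volume ice-cold acetonitrile. Each condition was corrected by its own equilibrium-dialysis fu,inc. n = 3, duplicates.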

Ratio [1]: 6.89
Ratio [2]: 0.332
Ratio [3]: 29.7
Ratio [4]: 0.328
Ratio [5]: 1.6
CL free [6]: 0.824 mL/min/g
Ratio [7]: 0.048
Ratio [8]: 0.011
Ratio [9]: 1.6
Ratio (Liver microsome): 1.6
SMILES: Cc1ccc(C)c(OCCCC(C)(C)C(=O)O)c1 [GEMFIBROZIL]
